These results are taken from patent US7557215B2, “Anthraquinone compounds as anti cancer compounds” (Somanta Limited, priority 2003, dated 2009).

This experiment concerns A2780. Briefly: Inhibition of cell growth, A2780 wild type ovarian carcinoma cell line. Particulars: read-out: Inhibition of cell growth A2780 nM (IC50), Table 2.

A word on the IC50: it is the concentration that gives 50% inhibition.

For the substance “1-{[2-(2-Chloromethylpyrrolidin-1-yl)ethyl]-amino}-4-{[(2-Dimethylamino)ethyl]amino}-5,8-dihydroxyanthracene-9,10-dione”, the IC50 was 29 nM. Take “1-{[2-(4-Chloropiperidin-1-yl)ethyl]amino}-4-{[(2-dimethylamino)ethyl]amino}-5,8-dihydroxyanthracene-9,10-dione”: the IC50 is 576 nM. The value for “1-{[2-(3-Chloropyrrolidin-1-yl)ethyl]amino}-4-{[(2-dimethylamino)ethyl]amino}-5,8-dihydroxyanthracene-9,10-dione” was 68 nM; that for “1-{[2-(2,6-Dichloromethylpiperidin-1-yl)ethyl]-amino}-4-{[(2-dimethylamino)ethyl]amino}-5,8-dihydroxyanthracene-9,10-dione” was 24 nM. As to “1-{[2-(3-Chloropiperidin-1-yl)ethyl]amino}-4-{[(2-dimethylamino)ethyl]amino}-5,8-dihydroxyanthracene-9,10-dione”, the IC50 is 9 nM. Next, “1-{[2-(2-Chloromethylpiperidin-1-yl)ethyl]-amino}-4-{[(2-dimethylamino)ethyl]amino}-5,8-dihydroxyanthracene-9,10-dione”: 40 nM.
